Results on one substance are retold here after patent US20250250357A1.

Test [1] concerns the target monkey MSLN full-length protein (NCBI: XP_028696439.1) on HEK293T cells (monkey). The test is described as follows: FACS on HEK293T-monkey MSLN cells; antibody 100 nM.
Test [2] shares this target. Description: FACS on HEK293T-monkey MSLN cells; antibody […].
For test [3] the target is unchanged. The test is described as follows: FACS on HEK293T-monkey MSLN cells; antibody 0.0064 nM.
For test [4] the target is unchanged. The test is described as follows: FACS on HEK293T-monkey MSLN cells; antibody 0.032 nM.
Test [5] has the same target. Description: FACS on HEK293T-monkey MSLN cells; antibody 0.00128 nM.
The target is the same in test [6]. Description: FACS on HEK293T-monkey MSLN cells; antibody 0.8 nM.
Test [7] has the same target. Description: FACS on HEK293T-monkey MSLN cells; antibody 20 nM.
Test [8] shares this target. Description: FACS on HEK293T-monkey MSLN cells; antibody 4 nM.
Test [9] concerns the target monkey MSLN full-length protein expressed on HEK293T cells (HEK293T-monkey MSLN) (monkey). Description: FACS on HEK293T-monkey MSLN cells.

As usually defined, the EC50 is the midpoint of the concentration-response curve. Turning to Tab142 (Amatuximab) (antibody), the FACS fluorescence intensity in [1] was found to be 3720; in [2] it was 503; in test [3], 115; in test [4], 192; in test [5], 98; in test [6] it was 1680. In addition, the FACS fluorescence intensity in test [7] stood at 3650; in test [8], 3610. In test [9], this substance came in with an EC50 of 1 nM. The substance also yielded a Maximum mean fluorescence intensity in test [9] of 39200.
